Screens deposited in PubChem by National Center for Advancing Translational Sciences (NCATS).
Sampled rows, rich in hits. Any-hit rate of the full collection: about 16%.
TDP1 block: TDP1 (human) enzyme inhibition; Q9NUW8; recombinant TDP1, AlphaScreen DNA substrate cleavage; Potency, µM (top dose mostly 130 µM), for inactives: at the highest dose activity change, negative = inhibition, usual class: inhibitors; 0.28% of 350,000 active; AID 485290; further: potency means the concentration at half of the fitted maximal effect; on the % scale 0 is the no-effect control and ±100 the full control effect; nearly all actives have a fitted effect of over 40% in size
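Compounds were preincubated with Tdp1 (1 nM final) for 15 min at room temperature before substrate (15 nM final) started a 5 min reaction; beads (10 ug/ml final) were then added for 10 min before AlphaScreen detection.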
TDP1 cell CPT: DT40-hTDP1 cell growth loss with CPT. chicken DT40 Tdp1-/-;hTDP1 cells + 20 nM CPT, ATP luminescence, 48 h. Potency, µM (titrated, usually from 46.2 µM), without a hit: at the highest dose activity change, negative = growth inhibition, usual class: inhibitors. 12% of 420,000 active. AID 686979; further: potency means the concentration at half of the fitted maximal effect; on the % scale 0 is the no-effect control and ±100 the full control effect; nearly all actives have a fitted effect of over 55% in size
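Chicken DT40 Tdp1-/- cells complemented with human TDP1, 400 cells/well, exposed to compounds plus 20 nM camptothecin for at least 48 h at 37 C; viability read as ATP content by CellTiter-Glo luminescence.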
uPA surface inh: cell surface uPA generation inhibition; cell surface uPA generation assay, qHTS; Potency, µM (highest dose often 38.3 µM), without a hit: at the highest dose activity change, negative = inhibition, usual class: inhibitors; 0.31% of 330,000 active; AID 540303; active means well fitted inhibition curve with a large enough effect; inconclusive means small, poorly fitted or top-dose-only effect; inactive means no such curve, though single readings can be large or run the other way; tested in mouse RAW 264.7 cells; further: potency means the concentration at half of the fitted maximal effect; on the % scale 0 is the no-effect control and ±100 the full control effect; nearly all actives have a fitted effect of over 55% in size
miR-21 reporter: miR-21 reporter, rising signal | AID 2288 | HeLa miR-21 FLuc reporter, luciferase, 48 h | 340,000 tested, under 10 active | Potency, µM (doses to about 38.3 µM), for inactives: at the top dose reporter change, positive = more light; active = well fitted rising curve with a large enough effect; inconclusive = small, poorly fitted or top-dose-only effect; inactive = no such curve, though single readings can be large or run the other way;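 note: % of control where 0% means no effect; miR-21 action dims this reporter so a rising signal means less miR-21 action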
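Luminescence from a firefly luciferase reporter carrying a miR-21 binding site downstream, stably expressed under a CMV promoter in HeLa cells that make miR-21 endogenously, reports miRNA modulation after 48 h compound exposure up to approximately 40uM final.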
TDP1 cell noCPT: qHTS for Inhibitors of human tyrosyl-DNA phosphodiesterase 1 (TDP1): qHTS in cells in absence of CPT; DT40 Tdp1-/- hTDP1 cells, no CPT, ATP luminescence, 48 h; Potency, µM (highest dose often 46.2 µM), for the others: at the highest dose activity change, negative = growth inhibition, usual class: inhibitors; 15% of 420,000 active; further: potency means the concentration at half of the fitted maximal effect; on the % scale 0 is the no-effect control and ±100 the full control effect; nearly all actives have a fitted effect of over 55% in size
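Chicken DT40 Tdp1-/- cells stably complemented with human TDP1 were seeded at 400 cells/well with DMSO in place of 20 nM camptothecin. After compound pinning, cells grew at least 48 hr at 37 °C; viability read by CellTiter-Glo luminescence.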
* hit, by the source's call; [ ] = another dose, or the depositor's remark. Unless noted, the call rests on the fitted dose curve; in most records, active means well fitted curve in the direction sought with a large enough effect; inconclusive means small, poorly fitted or top-dose-only effect, or another doubt; inactive means no such curve, though single readings can be large; an effect the other way counts as inactive or inconclusive.

What do the screens show for `CCOC(=O)c1c(-c2ccccc2)nnn1-c1nc(OCC)nc(N2CCCCC2)n1`?
TDP1 block: 3%; TDP1 cell CPT: 18µM*; uPA surface inh: -1%; miR-21 reporter: 18%; TDP1 cell noCPT: inconclusive

What do the screens show for `CCOc1nc(N2CCCCC2)nc(-n2cc(-c3ccccc3)nn2)n1`?
TDP1 block: 0%; TDP1 cell CPT: 16µM*; uPA surface inh: 2%; miR-21 reporter: -2%; TDP1 cell noCPT: 18µM*

Results for CCOC(=O)c1nnn(-c2ccccc2)c1C ?
TDP1 block: 0%; TDP1 cell CPT: -4%; uPA surface inh: -12%; miR-21 reporter: -25%; TDP1 cell noCPT: -11%

How did CCOC(=O)c1nnn(-c2nc(N3CCCC3)nc(N3CCCC3)n2)c1-c1ccccc1 do in these assays?
TDP1 block: 0%; TDP1 cell CPT: 18µM*; uPA surface inh: -2%; miR-21 reporter: -1%; TDP1 cell noCPT: inconclusive

How did CCOc1ccccc1Nc1nc(N2CCCC2)nc(N2CCOCC2)n1 do in these assays?
uPA surface inh: -7%

How did COc1ccc(CCN=Cc2ccc(O)cc2)cc1OC do in these assays?
TDP1 cell CPT: -23%; uPA surface inh: 1%; miR-21 reporter: 1%; TDP1 cell noCPT: -4%

What do the screens show for `CC1CCN(C(=O)COc2ccc(Nc3ccccc3)cc2)CC1`?
TDP1 block: 3%; TDP1 cell CPT: -16%; uPA surface inh: 0%; miR-21 reporter: -6%; TDP1 cell noCPT: inconclusive

How did NNc1nccc(Nc2ccccc2C(=O)O)n1 do in these assays?
TDP1 block: 1%; TDP1 cell CPT: -10%; uPA surface inh: 8%; miR-21 reporter: -3%; TDP1 cell noCPT: -22%

Results for COc1ccc2nc(SC)cc(C)c2c1 ?
TDP1 block: 0%; TDP1 cell CPT: -12%; uPA surface inh: 8%; miR-21 reporter: 2%; TDP1 cell noCPT: -27%

How did COc1ccc(CNC(=O)Nc2ccc3c(c2)c(=O)n(C)n3Cc2cccc(C(F)(F)F)c2)cc1 do in these assays?
TDP1 cell CPT: inconclusive; TDP1 cell noCPT: 23µM*

What do the screens show for `Cn1c(=O)c2cc(NC(=O)CCc3cccc(Cl)c3)ccc2n1Cc1cccc(C(F)(F)F)c1`?
TDP1 cell CPT: -20%; TDP1 cell noCPT: -24%

What do the screens show for `COc1ccc(OC)c(CC(=O)Nc2ccc3c(c2)c(=O)n(C)n3Cc2cccc(C(F)(F)F)c2)c1`?
TDP1 cell CPT: 29µM*; TDP1 cell noCPT: inconclusive

What do the screens show for `N[C@H](Cc1ccc(Cl)cc1)C(=O)O`?
TDP1 block: 4%; TDP1 cell CPT: 3%; TDP1 cell noCPT: -5%

How did CN(C)C(=O)c1ccc(NC(=O)COC(=O)c2cc(S(=O)(=O)N(C)C)ccc2N2CCCC2)cc1 do in these assays?
TDP1 block: 1%[0.505 µM]; TDP1 cell CPT: -23%; uPA surface inh: -1%; TDP1 cell noCPT: inconclusive

How did CN(C)CCCN(C(=O)c1ccc(S(=O)(=O)N(C)C)cc1)c1nc2cc3c(cc2s1)OCO3 do in these assays?
TDP1 block: -4%; TDP1 cell CPT: inconclusive; uPA surface inh: -8%; miR-21 reporter: 3%; TDP1 cell noCPT: inconclusive

How did CN(C)CCCN(C(=O)COc1ccccc1)c1nc2cc3c(cc2s1)OCCO3 do in these assays?
TDP1 block: 4%; TDP1 cell CPT: -7%; uPA surface inh: -9%; miR-21 reporter: -21%; TDP1 cell noCPT: -30%

What do the screens show for `CN(C)CCCN(C(=O)CCSc1ccccc1)c1nc2cc3c(cc2s1)OCO3`?
TDP1 block: 5%; TDP1 cell CPT: 8.2µM*; uPA surface inh: -2%; miR-21 reporter: 15%; TDP1 cell noCPT: 13µM*

How did CN(C)CCCN(C(=O)c1ccc(Br)s1)c1nc2cc3c(cc2s1)OCO3 do in these assays?
TDP1 block: 3%; TDP1 cell CPT: 9.2µM*; uPA surface inh: -3%; miR-21 reporter: -3%; TDP1 cell noCPT: 15µM*

Results for CN(C)CCCN(C(=O)CCS(=O)(=O)c1ccccc1)c1nc2cc3c(cc2s1)OCO3 ?
TDP1 block: 1%; TDP1 cell CPT: 1.3µM*; uPA surface inh: -13%; miR-21 reporter: inconclusive; TDP1 cell noCPT: 1.5µM*

Results for CCC(C)C1Nc2ccc(C(=O)NCCc3ccc(OC)c(OC)c3)cc2NC1=O (configuration not stated) ?
TDP1 block: 6%; TDP1 cell CPT: 16µM*; uPA surface inh: inconclusive; miR-21 reporter: inconclusive; TDP1 cell noCPT: inconclusive

An excerpt from above in order of molar mass, smallest number first:
What do the screens show for `N[C@H](Cc1ccc(Cl)cc1)C(=O)O`?
TDP1 block: 4%; TDP1 cell CPT: 3%; TDP1 cell noCPT: -5%

How did NNc1nccc(Nc2ccccc2C(=O)O)n1 do in these assays?
TDP1 block: 1%; TDP1 cell CPT: -10%; uPA surface inh: 8%; miR-21 reporter: -3%; TDP1 cell noCPT: -22%

What do the screens show for `CCOc1nc(N2CCCCC2)nc(-n2cc(-c3ccccc3)nn2)n1`?
TDP1 block: 0%; TDP1 cell CPT: 16µM*; uPA surface inh: 2%; miR-21 reporter: -2%; TDP1 cell noCPT: 18µM*

What do the screens show for `COc1ccc(OC)c(CC(=O)Nc2ccc3c(c2)c(=O)n(C)n3Cc2cccc(C(F)(F)F)c2)c1`?
TDP1 cell CPT: 29µM*; TDP1 cell noCPT: inconclusive

(more compounds)
How did COC(=O)c1c(-c2c(Cl)cccc2Cl)noc1NC(=O)NN1CCCCC1 do in these assays?
TDP1 block: 3%; TDP1 cell CPT: inconclusive; uPA surface inh: 10%; miR-21 reporter: 4%; TDP1 cell noCPT: 16µM*

Results for COC(=O)c1c(-c2c(Cl)cccc2Cl)noc1NC(=O)NN1CCOCC1 ?
TDP1 block: 9%; TDP1 cell CPT: -8%; uPA surface inh: 1%; miR-21 reporter: -5%; TDP1 cell noCPT: -19%

What do the screens show for `COc1cc(C(=O)OC(C)CN2CCCCC2)cc(OC)c1OC` (configuration not stated)?
TDP1 block: 5%; TDP1 cell CPT: -4%; uPA surface inh: 3%; miR-21 reporter: -4%; TDP1 cell noCPT: 7%

What do the screens show for `CCOC(=O)c1cc(C(=O)NNC(=O)c2cccc([N+](=O)[O-])c2)c(C)nc1C`?
TDP1 block: -1%; TDP1 cell CPT: inconclusive; uPA surface inh: 1%; TDP1 cell noCPT: 1%

What do the screens show for `CC1(C(=O)Nc2ccc(Cl)c(Cl)c2)CCN1C(=O)Cc1ccc(-c2ccccc2)cc1` (configuration not stated)?
TDP1 cell CPT: 15µM*; TDP1 cell noCPT: 18µM*

How did CCC(=O)N1CCC1(C)C(=O)Nc1ccc2c(c1)OCO2 (configuration not stated) do in these assays?
TDP1 cell CPT: 2%; TDP1 cell noCPT: -3%

How did Cn1nc(C2CC2)cc1NC(=O)C1(C)CCN1C(=O)Cc1ccc(-c2ccccc2)cc1 (configuration not stated) do in these assays?
TDP1 cell CPT: 21µM*; TDP1 cell noCPT: 21µM*

How did Cn1nc(C2CC2)cc1NC(=O)C1(C)CCN1C(=O)CCc1ccccc1 (configuration not stated) do in these assays?
TDP1 cell CPT: -25%; TDP1 cell noCPT: -20%

How did CC1(C(=O)Nc2ccc3c(c2)OCO3)CCN1C(=O)Cc1ccc(-c2ccccc2)cc1 (configuration not stated) do in these assays?
TDP1 cell CPT: 7.3µM*; TDP1 cell noCPT: 4.6µM*

What do the screens show for `CC1(C(=O)N2CCCCC2)CCN1C(=O)Cc1ccc(-c2ccccc2)cc1` (configuration not stated)?
TDP1 cell CPT: 15µM*; TDP1 cell noCPT: inconclusive

How did Clc1cccc(-c2ccc(C3Nc4cccc5cccc(c45)N3)o2)c1 do in these assays?
TDP1 block: 9%; uPA surface inh: 12%
